Test results: publication PMC4291348, “A Continuous Enzyme-Coupled Assay for Triphosphohydrolase Activity of HIV-1 Restriction Factor SAMHD1” (Antimicrobial Agents and Chemotherapy, 2014)

Legend:
[1] = substrate: Cc1cn([C@H]2C[C@H](O)[C@@H](COP(=O)(O)OP(=O)(O)OP(=O)(O)O)O2)c(=O)[nH]c1=O; assay: Continuous enzyme-coupled (Ppx1 / MDCC-PBP) real-time assay of SAMHD1 triphosphohydrolase activity; assay type: biochemical, human; conditions: other: GTP activator 0.2 mM, 25°C
Method: (§1) The steady-state kinetics of SAMHD1 were determined by a coupled-enzyme assay using Ppx1 and a fluorescent phosphate biosensor, MDCC-PBP. The reactions were set up in 20-μl volumes in 384-well low-protein-binding microplates (Corning, USA), and the time-dependent fluorescence signal was measured using a Tecan Saffire^2 multiwell plate reader (Männedorf, Switzerland). Solutions containing SAMHD1 (residues 115 to 626), Ppx1, MDCC-PBP, an activator, and an inhibitor (if present) were incubated for 5 min at 25°C before the reaction was initiated by the addition of the substrate. The final concentrations were 100 nM SAMHD1, 10 nM Ppx1, and 40 μM MDCC-PBP. […] The fluorescence intensity was recorded at 430 nm for excitation and 465 nm for emission wavelengths, with a 7-nm slit width, at 8- to 10-s time intervals over a period of 10 to 30 min. The standard curves were obtained by incubating 40 μM MDCC-PBP with different concentrations of phosphate (Pi) and measuring the fluorescence, as discussed above. The fluorescence response was linear and in the range of 0 to 20 μM Pi.
(§2) The steady-state rates were obtained from the time courses of Pi formation by linear regression of the data points in the linear phase of the reaction. […] Data from the three different experiments were analyzed by a least-squares fit using the equation for competitive inhibition. […]

[2] = substrate: Nc1nc(Cl)nc2c1ncn2[C@@H]1O[C@H](COP(=O)(O)OP(=O)(O)OP(=O)(O)O)[C@@H](O)[C@@H]1F; assay: as above; assay type: biochemical, human; conditions: other: GTP activator 0.2 mM, 25°C
Method: as §1, §2

B1: SAMHD1 (residues 115 to 626) (Homo sapiens) (protein)
chain: MKVINDPIHGHIELHPLLVRIIDTPQFQRLRYIKQLGGGYYVFPGASHNRFEHSLGVGYLAGCLVHALGEKQPELQISERDVLCVQIAGLCHDLGHGPFSHMFDGRFIPLARPEVKWTHEQGSVMMFEHLINSNGIKPVMEQYGLIPEEDICFIKEQIVGPLESPVEDSLWPYKGRPENKSFLYEIVSNKRNGIDVDKWDYFARDCHHLGIQNNFDYKRFIKFARVCEVDNELRICARDKEVGNLYDMFHTRNSLHRRAYQHKVGNIIDTMITDAFLKADDYIEITGAGGKKYRISTAIDDMEAYTKLTDNIFLEILYSTDPKLKDAREILKQIEYRNLFKYVGETQPTGQIKIKREDYESLPKEVASAKPKVLLDVKLKAEDFIVDVINMDYGMQEKNPIDHVSFYCKTAPNRAIRITKNQVSQLLPEKFAEQLIRVYCKKVDRKSLYAARQYFVQWCADRNFTKPQDGDVIAPLITPQKKEWNDSTSVQNPTRLREASKSRVQLFKDDPM
notes: The catalytic domain of SAMHD1 (residues 115 to 626) was expressed and purified as previously described; made in house
With B1 as the protein, how does the kcat [1] read?
Its kcat is 1.32 ± 0.07 s⁻¹.

What about the kcat [2] of the same protein?
The kcat was 0.91 ± 0.07 s⁻¹.
